Test: log P by HPLC on reversed phase columns (Method L0)
Details: not given

Compound | logP (Method L0)^[a] | logP (Method L0) | logP (Method L0)[a]
O=C(N[C@H]1CCOc2ccccc21)c1cnc2c(-c3cccc(Cl)c3Cl)c(F)ccc2c1NCCO | 1.66 | – | –
CNc1c(C(=O)N[C@H]2CCOc3ccccc32)cnc2c(-c3cc(F)cc(F)c3F)c(Cl)ccc12 | – | 1.89 | –
O=C(O)CCSc1c(C(=O)N[C@H]2CCOc3ccccc32)cnc2c(-c3cc(Cl)cc(Cl)c3)cccc12 | 4.08 | – | –
CC(C)N(C)c1c(C(=O)N[C@H]2CCOc3ccccc32)cnc2c(-c3cccc(Cl)c3Cl)cccc12 | 3.29 | – | –
Cc1nc2c(-c3cc(F)cc(F)c3F)cccc2c(N(C)C)c1C(=O)N[C@H]1CCOc2ccccc21 | 2.34 | – | –
CC(C)N(C)c1c(C(=O)N[C@H]2CCOc3ccccc32)cnc2c(-c3cc(Cl)cc(Cl)c3)cccc12 | 4.51 | – | –
CN(CC(F)F)c1c(C(=O)N[C@H]2CCOc3ccccc32)cnc2c(-c3cccc(Cl)c3Cl)cccc12 | 4.36 | – | –
Cc1nc2c(-c3cc(Cl)cc(Cl)c3)cccc2c(N(C)C)c1C(=O)N[C@H]1CCOc2ccccc21 | 2.88 | – | –
CN(CCO)c1c(C(=O)N[C@H]2CCOc3ccccc32)cnc2c(-c3cccc(Cl)c3Cl)cccc12 | – | 2.43 | –
CNc1c(C(=O)N[C@H]2CCOc3ccccc32)cnc2c(-c3cc(F)cc(F)c3F)c(F)ccc12 | 1.66 | – | –
CON(C)c1c(C(=O)N[C@H]2CCc3ccccc32)cnc2c(-c3cc(F)cc(F)c3F)cccc12 | 3.94 | – | –
CCNc1c(C(=O)N[C@H]2CCOc3ccccc32)cnc2c(-c3cc(F)cc(F)c3F)c(F)ccc12 | – | 2.03 | –
CN(CCO)c1c(C(=O)N[C@H]2CCOc3ccccc32)cnc2c(-c3cc(F)cc(F)c3F)cccc12 | – | 2.63 | –
CN(CCS(C)(=O)=O)c1c(C(=O)N[C@H]2CCOc3ccccc32)cnc2c(-c3cc(Cl)nc(Cl)c3)c(F)ccc12 | – | 3.48 | –
CON(C)c1c(C(=O)N[C@H]2CCOc3ccccc32)cnc2c(-c3cc(F)cc(F)c3F)c(F)ccc12 | 3.9 | – | –
CN(CCS(C)(=O)=O)c1c(C(=O)N[C@H]2CCOc3ccccc32)cnc2c(-c3cc(Cl)cc(Cl)c3)c(F)ccc12 | – | 3.9 | –
COc1ccc2c(c1)CC[C@@H]2NC(=O)c1cnc2c(-c3cc(Cl)cc(Cl)c3)cccc2c1N(C)C | – | – | 2.84
O=C(N[C@H]1CCOc2ccccc21)c1cnc2c(-c3cc(F)c(OC(F)F)c(F)c3)c(F)ccc2c1N1CCOCC1 | 3.68 | – | –
O=C(N[C@H]1CCOc2ccccc21)c1cnc2c(-c3cccc(Cl)c3Cl)cccc2c1N1CCCO1 | 2.13 | – | –
O=C(N[C@H]1CCOc2ccccc21)c1cnc2c(-c3cc(Cl)nc(Cl)c3)c(F)ccc2c1N1CCOCC1 | 3.94 | – | –
O=C(N[C@H]1CCOc2ccccc21)c1cnc2c(-c3cccc4ncsc34)c(F)ccc2c1N1CCOCC1 | 2.63 | – | –
CC1(C)CC(NC(=O)c2cnc3c(-c4cc(Cl)cc(Cl)c4)c(Cl)ccc3c2N2CCOCC2)c2ccccc21 (centres unmarked) | – | 5.59 | –
CNc1c(C(=O)N[C@H]2CCOc3ccccc32)cnc2c(-c3cccc(Cl)c3Cl)c(F)ccc12 | 1.78 | – | –
CNc1c(C(=O)N[C@H]2CCOc3ccccc32)cnc2c(-c3cccc(Cl)c3Cl)cccc12 | 1.66 | – | –

Compound | logP (Method L0)^[a] | logP (Method L0) | logP (Method L0)[a]
CCS(=O)(=O)c1c(C(=O)N[C@H]2CCOc3ccccc32)cnc2c(-c3cccc(Cl)c3Cl)cccc12 | 3.94 | – | –
CCN(C)c1c(C(=O)N[C@H]2CCOc3ccccc32)cnc2c(-c3cc(Cl)cc(Cl)c3)cccc12 | 3.63 | – | –
O=C(N[C@H]1CCOc2ccccc21)c1cnc2c(-c3cc(F)cc(F)c3F)c(F)ccc2c1NCCO | – | 1.61 | –
CN(CC1CCOCC1)c1c(C(=O)N[C@H]2CCOc3ccccc32)cnc2c(-c3cccc(Cl)c3Cl)cccc12 | 3 | – | –
O=C(N[C@H]1CCOc2ccccc21)c1cnc2c(-c3cc(Cl)nc(Cl)c3)c(Cl)ccc2c1N1CCOCC1 | 4.18 | – | –
Cc1ccc(C)c(-c2c(F)ccc3c(N4CCOCC4)c(C(=O)N[C@H]4CCOc5ccccc54)cnc23)c1 | 2.96 | – | –
O=C(N[C@H]1CCOc2ccccc21)c1cnc2c(-c3cc(Cl)cc(Cl)c3)c(F)ccc2c1NCCO | – | 1.84 | –
O=C(N[C@H]1CCOc2ccccc21)c1cnc2c(-c3cc(Cl)cc(Cl)c3)c(Cl)ccc2c1N1CCOCC1 | 3.76 | – | –
CON(C)c1c(C(=O)N[C@H]2CCOc3ccccc32)cnc2c(-c3cc(F)cc(F)c3F)cccc12 | 3.81 | – | –
O=C(N[C@H]1CCOc2ccccc21)c1cnc2c(-c3cc(Cl)cc(Cl)c3)cccc2c1NCCn1ccnc1 | – | 1.24 | –
O=C(N[C@H]1CCOc2ccccc21)c1cnc2c(-c3cccc(Cl)c3Cl)c(F)ccc2c1NCCn1ccnc1 | – | 1.26 | –
O=C(N[C@H]1CCOc2ccccc21)c1cnc2c(-c3cc(F)cc(F)c3F)cccc2c1NCCO [566] | 1.71 | – | –
O=C(N[C@H]1CCc2ccccc21)c1cnc2c(-c3cc(Cl)cc(Cl)c3)c(F)ccc2c1N1CCOCC1 | 4.61 | – | –
O=C(N[C@H]1CCOc2ccccc21)c1cnc2c(-c3cc(F)cc(F)c3F)cccc2c1NCCO [567] | 1.42 | – | –
Cc1cc(-c2c(F)ccc3c(N4CCOCC4)c(C(=O)N[C@H]4CCOc5ccccc54)cnc23)c(C)s1 | 2.8 | – | –
O=C(N[C@H]1CCOc2ccccc21)c1cnc2c(-c3cc(Cl)cc(Cl)c3)cccc2c1NCC1COC1 | 2.19 | – | –
CNc1c(C(=O)N[C@H]2CCOc3ccccc32)cnc2c(-c3cc(Cl)cc(Cl)c3)c(Cl)ccc12 | – | 2.09 | –
O=C(N[C@H]1CCOc2ccccc21)c1cnc2c(-c3cc(Cl)nc(Cl)c3)cccc2c1NCCO | 1.53 | – | –
CCN(C)c1c(C(=O)N[C@H]2CCOc3ccccc32)cnc2c(-c3cccc(Cl)c3Cl)cccc12 | 2.62 | – | –
O=C(N[C@H]1CCOc2ccccc21)c1cnc2c(-c3cc(F)cc(Cl)c3)c(Cl)ccc2c1N1CCOCC1 | 4.23 | – | –
O=C(N[C@H]1CCOc2ccccc21)c1cnc2c(-c3cc(F)cc(F)c3F)c(F)ccc2c1N1CCOCC1 [Example 540] | 3.59 | – | –
CNc1c(C(=O)N[C@H]2CCOc3ccccc32)cnc2c(-c3cc(F)cc(F)c3F)cccc12 | 1.55 | – | –
O=C(N[C@H]1CCOc2ccccc21)c1cnc2c(-c3cc(Cl)sc3Cl)c(F)ccc2c1N1CCOCC1 | 4.25 | – | –
O=C(N[C@H]1CCOc2ccccc21)c1cnc2c(-c3cccc(Cl)c3Cl)cccc2c1NCC1COC1 | 1.75 | – | –

Compound | logP (Method L0)^[a] | logP (Method L0) | logP (Method L0)[a]
O=C(N[C@H]1CCOc2ccccc21)c1cnc2c(-c3cc(Cl)nc(Cl)c3)c(F)ccc2c1NCCO | – | 1.84 | –
CN(CCO)c1c(C(=O)N[C@H]2CCc3ccccc32)cnc2c(-c3cc(Cl)cc(Cl)c3)c(F)ccc12 | – | 4.19 | –
CN(CC1CCOC1)c1c(C(=O)N[C@H]2CCOc3ccccc32)cnc2c(-c3cccc(Cl)c3Cl)c(F)ccc12 (some centres unmarked) | – | 3.61 | –
CCNc1c(C(=O)N[C@H]2CCOc3ccccc32)cnc2c(-c3cc(Cl)nc(Cl)c3)c(F)ccc12 | – | 2.48 | –
O=C(N[C@H]1CCOc2ccccc21)c1cnc2c(-c3cccc(F)c3F)c(F)ccc2c1N1CCOCC1 | 3.33 | – | –
O=C(N[C@H]1CCOc2ccccc21)c1cnc2c(-c3cc(Cl)cc(Cl)c3)c(F)ccc2c1N1CC(F)C1 | – | 2.06 | –
CNc1c(C(=O)N[C@H]2CCOc3ccccc32)cnc2c(-c3cc(Cl)nc(Cl)c3)c(F)ccc12 | 1.9 | – | –
Cc1nc2c(-c3cc(Cl)cc(Cl)c3)cccc2c(N2CCOCC2)c1C(=O)N[C@H]1CCOc2ccccc21 | 4.51 | – | –
CN(CCO)c1c(C(=O)N[C@H]2CCOc3ccccc32)cnc2c(-c3cc(Cl)nc(Cl)c3)cccc12 | – | 3.25 | –
O=C(N[C@H]1CCOc2ccccc21)c1cnc2c(-c3cccc(C(F)(F)F)c3)c(Cl)ccc2c1N1CCOCC1 | 4.13 | – | –
CN(CCO)c1c(C(=O)N[C@H]2CCOc3ccccc32)cnc2c(-c3cc(Cl)cc(Cl)c3Cl)cccc12 | – | 3.44 | –
CC(=O)OCCNc1c(C(=O)N[C@H]2CCOc3ccccc32)cnc2c(-c3cccc(Cl)c3Cl)cccc12 | – | 1.92 | –
C[C@@H]1CN(c2c(C(=O)N[C@H]3CCc4ccccc43)cnc3c(-c4cccc(Cl)c4Cl)cccc23)C[C@H](C)O1 | – | 4.13 | –
CON(C)c1c(C(=O)N[C@H]2CCOc3ccccc32)cnc2c(-c3cc(Cl)nc(Cl)c3)c(Cl)ccc12 | 4.46 | – | –
C[C@@H]1CN(c2c(C(=O)N[C@H]3CCOc4ccccc43)cnc3c(-c4cccc(Cl)c4Cl)cccc23)C[C@H](C)O1 | – | 4.03 | –
CN(CCn1ccnc1)c1c(C(=O)N[C@H]2CCOc3ccccc32)cnc2c(-c3cc(Cl)cc(Cl)c3)c(F)ccc12 | – | 2.03 | –
CN(CCO)c1c(C(=O)N[C@H]2CCOc3ccccc32)cnc2c(-c3cc(Cl)cc(Cl)c3)c(F)ccc12 | – | 3.76 | –
O=C(N[C@H]1CCOc2ccccc21)c1cnc2c(-c3cc(Cl)ccc3F)c(Cl)ccc2c1N1CCOCC1 | 4.03 | – | –
CNc1c(C(=O)N[C@H]2CCOc3ccccc32)cnc2c(-c3cc(Cl)cc(Cl)c3)c(F)ccc12 | 1.93 | – | –
O=C(N[C@H]1CCOc2ccccc21)c1cnc2c(-c3cc(F)cc(F)c3F)c(F)ccc2c1NCCn1cccn1 | – | 2.3 | –
COC(=O)CCN(C)c1c(C(=O)N[C@H]2CCOc3ccccc32)cnc2c(-c3cc(Cl)cc(Cl)c3)c(F)ccc12 | – | 4.51 | –
CCNc1c(C(=O)N[C@H]2CCOc3ccccc32)cnc2c(-c3cc(Cl)cc(Cl)c3)c(F)ccc12 | – | 2.23 | –

Same assay, conditions: tested form: racemate

Compound | logP (Method L0)
O=C1CC(NC(=O)c2cnc3c(-c4cc(Cl)cc(Cl)c4)cccc3c2N2CCOCC2)c2ccccc21 (centres unmarked) | 4.08

— patent publication US10889573B2, “Anthelmintic quinoline-3-carboxamide derivatives” (Bayer Animal Health GMBH, priority 2016, dated 2021)
